High-throughput results as filed in PubChem.
TDP1 block = inhibitors of human tyrosyl-DNA phosphodiesterase TDP1; Q9NUW8; recombinant TDP1, AlphaScreen DNA substrate cleavage; Potency, µM (series often up to 130 µM), for inactives: at the highest dose activity change, negative = inhibition, usual class: inhibitors; 0.28% of 350,000 active; AID 485290; note: potency is the fitted concentration of half-maximal effect; % is set by controls: 0 for no effect and ±100 for the full control effect; nearly all actives have a fitted effect of over 40% in size
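Here, a 5' biotin and 3' phosphotyrosine-FITC DNA oligonucleotide reports Tdp1 activity: intact substrate bridges AlphaScreen beads, while cleavage leaves a 3' phosphate and drops signal. All incubations at room temperature.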
uPA surface inh = cell surface uPA generation inhibition; cell surface uPA generation assay, qHTS; Potency, µM (top dose mostly 38.3 µM), inactives show top-dose activity change, negative = inhibition, most hits filed as inhibitors; 0.31% of 330,000 active; AID 540303; active = well fitted inhibition curve with a large enough effect; inconclusive = small, poorly fitted or top-dose-only effect; inactive = no such curve, though single readings can be large or run the other way; tested in mouse RAW 264.7 cells; note: potency is the fitted concentration of half-maximal effect; % is set by controls: 0 for no effect and ±100 for the full control effect; nearly all actives have a fitted effect of over 55% in size
TDP1 cell noCPT = qHTS for Inhibitors of human tyrosyl-DNA phosphodiesterase 1 (TDP1): qHTS in cells in absence of CPT | DT40 Tdp1-/- hTDP1 cells, no CPT, ATP luminescence, 48 h | Potency, µM (doses to about 46.2 µM), without a hit: at the highest dose activity change, negative = growth inhibition, hits mostly inhibitors | 15% of 420,000 active | AID 686978, 2013; note: potency is the fitted concentration of half-maximal effect; % is set by controls: 0 for no effect and ±100 for the full control effect; nearly all actives have a fitted effect of over 55% in size
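Seeded 400 DT40-hTDP1 cells/well (vehicle DMSO, no 20 nM CPT); pinned compounds; ≥48 hr at 37 °C; CellTiter-Glo luminescence as viability measure.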
miR-21 reporter = miR-21 reporter, rising signal; HeLa miR-21 FLuc reporter, luciferase, 48 h; Potency, µM (titrated, usually from 38.3 µM), for the others: at the top dose reporter change, positive = more light; 340,000 tested, under 10 active; AID 2288; active = well fitted rising curve with a large enough effect; inconclusive = small, poorly fitted or top-dose-only effect; inactive = no such curve, though single readings can be large or run the other way;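 also: % of control where 0% means no effect; miR-21 action dims this reporter so a rising signal means less miR-21 action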
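Using DMEM plus 10% FBS, HeLa miR-21-FLuc cells are incubated with test compounds (final up to about 40uM) for 48 hours; firefly luciferase signal is then imaged following reagent-mediated lysis.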
TDP1 cell CPT = DT40-hTDP1 cell growth loss with CPT | Potency, µM (series often up to 46.2 µM), for the others: top-dose activity change, negative = growth inhibition, usual class: inhibitors | chicken DT40 Tdp1-/-;hTDP1 cells + 20 nM CPT, ATP luminescence, 48 h | AID 686979 | 12% of 420,000 active; note: potency is the fitted concentration of half-maximal effect; % is set by controls: 0 for no effect and ±100 for the full control effect; nearly all actives have a fitted effect of over 55% in size
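Chicken DT40 Tdp1-/- cells stably complemented with human TDP1 were seeded at 400 cells/well in medium containing 20 nM camptothecin, exposed to pin-transferred compounds, and grown at 37 °C for at least 48 hr. Viability was read as ATP luminescence.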
The depositor's hits bear a star. Rows were chosen to be rich in hits. Some 16% of all compounds tested hit in one or more screens of this group. Unless noted, calls come from the whole dose curve; as a rule, active = well fitted curve in the direction sought with a large enough effect; inconclusive = small, poorly fitted or top-dose-only effect, or another doubt; inactive = no such curve, though single readings can be large; an effect the other way counts as inactive or inconclusive.

What do the screens show for `O=C(CN1CCCC1)Nc1c2c(nc3ccccc13)N(Cc1ccccc1)CC2`?
TDP1 block: -7%; uPA surface inh: -8%; TDP1 cell noCPT: -30%; miR-21 reporter: -9%; TDP1 cell CPT: 21µM*

Results for C=CCc1cccc(/C=C/c2cc(=O)c3ccccc3[nH]2)c1O ?
TDP1 block: 3%; uPA surface inh: -9%; TDP1 cell noCPT: 7.3µM*; miR-21 reporter: -23%; TDP1 cell CPT: 7.3µM*

Results for CCOc1cc(C(N)=O)cc(Br)c1OC ?
TDP1 block: 5%; uPA surface inh: 2%; TDP1 cell noCPT: 16µM*; miR-21 reporter: 14%; TDP1 cell CPT: 23µM*

Results for CCC(=O)Nc1ccc(SC#N)cc1C ?
TDP1 block: 1%; uPA surface inh: inconclusive; TDP1 cell noCPT: 5µM*; miR-21 reporter: 20%; TDP1 cell CPT: 6.5µM*

Results for CCOC(=O)CC(=O)Nc1c(C)cc(C)cc1C ?
TDP1 block: 10%; uPA surface inh: -8%; TDP1 cell noCPT: 5%; miR-21 reporter: -1%; TDP1 cell CPT: -2%

What do the screens show for `Cc1cc(SC#N)cc(C)c1NC(=O)CCl`?
TDP1 block: -3%; uPA surface inh: -12%; TDP1 cell noCPT: 2.6µM*; miR-21 reporter: 21%; TDP1 cell CPT: 3.3µM*

How did CCc1cc(SC#N)cc(C)c1NC(=O)CCl do in these assays?
TDP1 block: -2%; uPA surface inh: -7%; TDP1 cell noCPT: 1.6µM*; miR-21 reporter: inconclusive; TDP1 cell CPT: 1.5µM*

How did Cc1ccc(C(=O)N/C(=C\c2cccs2)C(=O)N2CCOCC2)cc1C do in these assays?
TDP1 block: 4%; uPA surface inh: 7%; TDP1 cell noCPT: -7%; miR-21 reporter: -1%; TDP1 cell CPT: -21%

How did Cc1nn(Cc2ccccc2)c(C)c1NC(=O)CCC(=O)O do in these assays?
TDP1 block: 5%; uPA surface inh: 6%; TDP1 cell noCPT: -20%; miR-21 reporter: -7%; TDP1 cell CPT: -7%

Results for COc1ccc2c(C)c(CCC(=O)NCc3ccccc3OC)c(=O)oc2c1 ?
TDP1 block: 6%; TDP1 cell noCPT: -23%; miR-21 reporter: -6%; TDP1 cell CPT: -23%

Sorted by formula weight (high to low): three of the compounds above
Results for C=CCc1cccc(/C=C/c2cc(=O)c3ccccc3[nH]2)c1O ?
TDP1 block: 3%; uPA surface inh: -9%; TDP1 cell noCPT: 7.3µM*; miR-21 reporter: -23%; TDP1 cell CPT: 7.3µM*

Results for CCOc1cc(C(N)=O)cc(Br)c1OC ?
TDP1 block: 5%; uPA surface inh: 2%; TDP1 cell noCPT: 16µM*; miR-21 reporter: 14%; TDP1 cell CPT: 23µM*

Results for CCC(=O)Nc1ccc(SC#N)cc1C ?
TDP1 block: 1%; uPA surface inh: inconclusive; TDP1 cell noCPT: 5µM*; miR-21 reporter: 20%; TDP1 cell CPT: 6.5µM*

Later entries.
What do the screens show for `Cc1cc(C)n(CCc2nc3c4ccccc4nc(N4CCN(c5ccccc5)CC4)n3n2)n1`?
TDP1 block: 6%; TDP1 cell noCPT: 3.3µM*; miR-21 reporter: -1%; TDP1 cell CPT: 2.9µM*

How did CCN(C(=O)Cn1c(=O)n2nc(CCn3nc(C)cc3C)nc2c2ccccc21)c1cccc(C)c1 do in these assays?
TDP1 block: 5%; uPA surface inh: -8%; TDP1 cell noCPT: -23%; miR-21 reporter: 1%; TDP1 cell CPT: -22%

Results for COc1cccc(CNC(=O)Cn2c(=O)n3nc(-c4cccc(C)c4)nc3c3ccccc32)c1 ?
TDP1 block: -8%; TDP1 cell noCPT: 15µM*; miR-21 reporter: -25%; TDP1 cell CPT: 16µM*

What do the screens show for `Cc1cccc(NC(=O)Cn2c(=O)n3nc(CCn4nc(C)cc4C)nc3c3ccccc32)c1`?
TDP1 block: 0%; TDP1 cell noCPT: 13µM*; miR-21 reporter: 3%; TDP1 cell CPT: 18µM*

What do the screens show for `C(#CCN1CCCC1)CC(c1ccccc1)c1ccccc1`?
TDP1 block: 9%; uPA surface inh: -4%; TDP1 cell noCPT: 16µM*; miR-21 reporter: -5%; TDP1 cell CPT: inconclusive

What do the screens show for `CC(C)CCN(Cc1ccco1)S(=O)(=O)c1csc(C(N)=O)c1`?
TDP1 block: 2%; uPA surface inh: -1%; TDP1 cell noCPT: 23µM*; miR-21 reporter: 2%; TDP1 cell CPT: 18µM*

What do the screens show for `CCOCCCN(Cc1ccco1)S(=O)(=O)c1csc(C(N)=O)c1`?
TDP1 block: 2%; uPA surface inh: -13%; TDP1 cell noCPT: 1%; miR-21 reporter: -4%; TDP1 cell CPT: -12%

Results for Cc1cc(C)n(CCNC(=O)CC2C(=O)NCCN2CC2CCCCC2)n1 (configuration not stated) ?
TDP1 block: 4%; uPA surface inh: 3%; TDP1 cell noCPT: 13%; miR-21 reporter: 0%; TDP1 cell CPT: 13%
